Read-outs that look alike come from different tables or passages of the source.

Protein sequences, listed by entry. Tags and fused reporters are not part of them. Residues count along the entry.
UniProt O60896, 24-148: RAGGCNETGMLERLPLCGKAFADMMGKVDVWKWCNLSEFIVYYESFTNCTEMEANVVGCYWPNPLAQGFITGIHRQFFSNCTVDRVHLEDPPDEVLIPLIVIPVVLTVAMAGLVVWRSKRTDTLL

The conditions of data set [1]: in humans; cited from earlier work.
In data set [2] the target is human amylin 3 receptor (hAMY3R) (Homo sapiens, UniProt O60896+P30988). Kind of data set: cAMP accumulation functional assay in HEK293-CNG cells expressing hAMY3R. Type of data set: cell-based. Particulars: presence versus absence of HSA (FIG. 2C). The procedure:
(§1) In the presence of the non-specific cAMP/cGMP phosphodiesterase inhibitor 3-isobutyl-1-methylxanthine (IBMX), accumulating cAMP can be measured in vitro using common detection methods. Thus, it is possible to estimate an in vitro potency (pEC50) for peptides activating each of these receptors using fit dose-response curves for cAMP accumulation.
(§2) Cells were carried in growth media for no more than 10 passages prior to testing.
Peptides were serially diluted in the same buffer as above for each given assay condition. Two assay control solutions consisting of 50 mcM forskolin (cAMP system maximum) or assay buffer only (cAMP system minimum) were also prepared in the appropriate stimulation buffers. Five microliters of each peptide-concentration, or assay control was added to triplicate wells and incubated for thirty minutes at room temperature. […] Plates were read on an Envision fluorescent plate reader (PerkinElmer).
Test values were first normalized to the forskolin induced cAMP system maximum and system minimum averaged values in Excel using the formula: (test value−system minavg)/(system maxavg−system minavg)*100. […] Normalized data was analyzed from triplicate tests and used to estimate the EC50 for each peptide on each receptor. […]
On the technique in general: Cyclic AMP is a second messenger, typically raised through Gs and lowered through Gi signalling.

The target in data set [3] is T1, human calcitonin receptor (hCTR) (Homo sapiens, UniProt P30988).
T1 sequence (P30988 25-474): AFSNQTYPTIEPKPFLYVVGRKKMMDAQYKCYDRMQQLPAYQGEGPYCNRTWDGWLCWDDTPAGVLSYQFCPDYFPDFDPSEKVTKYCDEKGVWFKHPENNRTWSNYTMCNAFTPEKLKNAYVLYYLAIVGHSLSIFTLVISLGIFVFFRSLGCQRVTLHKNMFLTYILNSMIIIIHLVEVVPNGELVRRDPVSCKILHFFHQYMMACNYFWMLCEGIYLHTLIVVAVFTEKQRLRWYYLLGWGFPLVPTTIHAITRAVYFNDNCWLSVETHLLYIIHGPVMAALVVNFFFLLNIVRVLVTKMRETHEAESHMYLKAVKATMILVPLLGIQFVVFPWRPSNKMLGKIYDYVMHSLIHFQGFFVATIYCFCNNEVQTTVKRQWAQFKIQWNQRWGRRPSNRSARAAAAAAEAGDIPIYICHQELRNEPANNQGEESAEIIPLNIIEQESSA
Kind of data set: cAMP accumulation functional assay in HEK293-CNG cells expressing hCTR. The class given is cell-based. How it is done: as §1, §2
Peptides were serially diluted in the same buffer as above for each given assay condition. Two assay control solutions consisting of 50 mcM forskolin (cAMP system maximum) or assay buffer only (cAMP system minimum) were also prepared in the appropriate stimulation buffers. Five microliters of each peptide-concentration, or assay control was added to triplicate wells and incubated for thirty minutes at room temperature. During this incubation step a 4× europium labelled cAMP tracer solution and a 4× Ulight®-anti-cAMP solution (consisting of an anti-cAMP monoclonal antibody labelled with Ulight™ dye) was prepared according to the manufacturer's protocol (PerkinElmer LANCE Ultra cAMP kit). Following this incubation, 5 mcL europium labelled cAMP and 5 mcL Ulight anti-cAMP antibody was added to wells. The plate was covered with an adhesive cover to prevent evaporation and incubated for 60 minutes at room temperature in the dark. Plates were read on an Envision fluorescent plate reader (PerkinElmer).
Test values were first normalized to the forskolin induced cAMP system maximum and system minimum averaged values in Excel using the formula: (test value−system minavg)/(system maxavg−system minavg)*100. Normalized test values represent a baseline corrected percentage of the system maximum cAMP response induced by forskolin. Normalized data was analyzed from triplicate tests and used to estimate the EC50 for each peptide on each receptor. Data was fit in GraphPad Prism software (v7.04) using a 4-parameter logistic curve model: Y=Bottom+(Top−Bottom)/(1+10^((Log EC50−X))). The Hill slope was constrained to 1.0. […]

Regarding `CC[C@H](C)[C@H](NC(=O)[C@@H]1CCCN1C(=O)CNC(=O)[C@H](Cc1ccccc1)NC(=O)[C@H](CC(N)=O)NC(=O)[C@H](CC(N)=O)NC(=O)[C@H](CO)NC(=O)[C@H](CO)NC(=O)[C@H](Cc1c[nH]cn1)NC(=O)[C@@H](NC(=O)[C@H](CC(C)C)NC(=O)[C@H](Cc1ccccc1)NC(=O)[C@H](CC(N)=O)NC(=O)[C@H](C)NC(=O)[C@H](CC(C)C)NC(=O)[C@H](CCCNC(=N)N)NC(=O)[C@H](CCC(N)=O)NC(=O)[C@@H](NC(=O)[C@H](C)NC(=O)[C@@H]1CSSC[C@H](NC(=O)[C@@H](N)CCCCN)C(=O)N[C@@H](CC(N)=O)C(=O)N[C@@H]([C@@H](C)O)C(=O)N[C@@H](C)C(=O)N[C@@H]([C@@H](C)O)C(=O)N1)[C@@H](C)O)C(C)C)C(=O)N[C@@H](CC(C)C)C(=O)N1CCC[C@H]1C(=O)N1CCC[C@H]1C(=O)N[C@H](C(=O)N[C@@H](CC(N)=O)C(=O)N[C@H](C(=O)NCC(=O)N[C@@H](CO)C(=O)N[C@@H](CC(N)=O)C(=O)N[C@H](C(=O)N[C@@H](Cc1ccc(O)cc1)C(N)=O)[C@@H](C)O)C(C)C)[C@@H](C)O` [Pramlintide, pramlintide, reference compound], the half-life entry in data set [1] is recorded as “approximately 48 minutes”. The “effect of HSA on potency at hAMY3R” value in data set [2] is reported as “unaffected by the presence of HSA”. The EC50 is 3.98 pM in data set [3] (hCTR 0% HSA, 0% HSA, read-out: pEC50 hCTR 0% HSA (converted)); 6.31 pM in data set [3] (hCTR 0.1% HSA, 0.1% HSA); 7.94 pM in data set [3] (hCTR 4% HSA, 4% HSA, read-out: pEC50 hCTR 4% HSA (converted)).

The values above are taken from patent US12018059B2, “Human amylin analog polypeptides and methods of use” (Intarcia Therapeutics, Inc., priority 2018, dated 2024).
